Reference: US11673889B2, “Substituted imidazo[4,5-c][1,8]naphthyridines as phosphodiesterase inhibitors” (Nanjing Zhengxiang Pharmaceuticals Co., Ltd., priority 2019, dated 2023)

Amino acid sequences for entries named in this document (tags omitted). Residues count along the entry.
UniProt P22413, whole entry: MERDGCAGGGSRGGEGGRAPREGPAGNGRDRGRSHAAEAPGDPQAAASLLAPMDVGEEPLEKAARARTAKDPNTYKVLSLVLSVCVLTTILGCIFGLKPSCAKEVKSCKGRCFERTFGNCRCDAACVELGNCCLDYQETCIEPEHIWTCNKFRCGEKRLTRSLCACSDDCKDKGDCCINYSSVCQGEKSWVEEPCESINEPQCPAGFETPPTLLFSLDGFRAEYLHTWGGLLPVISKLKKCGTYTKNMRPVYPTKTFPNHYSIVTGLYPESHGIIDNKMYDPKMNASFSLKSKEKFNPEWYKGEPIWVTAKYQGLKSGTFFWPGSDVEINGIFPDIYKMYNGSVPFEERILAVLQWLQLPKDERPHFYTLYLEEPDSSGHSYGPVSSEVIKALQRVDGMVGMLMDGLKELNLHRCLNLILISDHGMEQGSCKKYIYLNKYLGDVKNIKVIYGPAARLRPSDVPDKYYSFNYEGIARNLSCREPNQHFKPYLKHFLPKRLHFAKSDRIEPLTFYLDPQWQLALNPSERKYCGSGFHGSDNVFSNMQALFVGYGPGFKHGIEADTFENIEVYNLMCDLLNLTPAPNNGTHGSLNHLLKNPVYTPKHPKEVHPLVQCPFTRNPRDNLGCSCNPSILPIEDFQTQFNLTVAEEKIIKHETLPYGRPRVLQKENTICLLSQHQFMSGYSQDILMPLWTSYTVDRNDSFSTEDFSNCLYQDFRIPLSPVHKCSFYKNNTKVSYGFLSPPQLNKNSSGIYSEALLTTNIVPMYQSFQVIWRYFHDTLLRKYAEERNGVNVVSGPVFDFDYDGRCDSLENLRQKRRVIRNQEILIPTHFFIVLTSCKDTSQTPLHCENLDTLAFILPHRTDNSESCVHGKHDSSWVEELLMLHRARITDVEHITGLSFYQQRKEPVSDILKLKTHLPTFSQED
UniProt P22413, 103-925 limits assumed: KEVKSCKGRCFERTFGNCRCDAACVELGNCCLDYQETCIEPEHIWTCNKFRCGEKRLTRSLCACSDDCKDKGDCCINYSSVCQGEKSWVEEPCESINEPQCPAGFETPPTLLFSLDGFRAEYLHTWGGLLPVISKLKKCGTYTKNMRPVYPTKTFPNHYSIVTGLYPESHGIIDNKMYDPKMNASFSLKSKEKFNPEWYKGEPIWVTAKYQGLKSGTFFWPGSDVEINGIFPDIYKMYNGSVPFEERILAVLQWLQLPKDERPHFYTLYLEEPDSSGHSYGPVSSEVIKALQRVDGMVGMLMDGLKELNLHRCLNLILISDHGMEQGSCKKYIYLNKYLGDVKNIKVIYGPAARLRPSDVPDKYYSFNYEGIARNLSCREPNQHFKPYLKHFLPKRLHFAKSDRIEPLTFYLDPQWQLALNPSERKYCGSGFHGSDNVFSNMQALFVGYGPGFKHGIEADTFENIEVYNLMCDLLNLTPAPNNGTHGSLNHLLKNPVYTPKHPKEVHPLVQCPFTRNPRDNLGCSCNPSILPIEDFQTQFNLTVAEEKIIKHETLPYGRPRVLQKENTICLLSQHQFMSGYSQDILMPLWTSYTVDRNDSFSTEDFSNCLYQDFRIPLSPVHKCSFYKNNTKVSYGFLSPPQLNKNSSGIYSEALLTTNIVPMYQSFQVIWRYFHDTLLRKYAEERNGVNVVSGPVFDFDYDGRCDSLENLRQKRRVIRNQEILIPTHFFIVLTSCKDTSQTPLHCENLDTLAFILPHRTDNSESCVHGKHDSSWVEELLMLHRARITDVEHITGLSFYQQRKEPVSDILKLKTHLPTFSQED

What was measured:
ENPP-1, MDA-MB-231 cells = ENPP-1, MDA-MB-231 cells (Homo sapiens, UniProt P22413); settings: for inhibition: 20 µM
human soluble ENPP1 [1] = molecular target: T1, human soluble ENPP1 (Homo sapiens, UniProt P22413); experiment: ENPP1 activity assay using p-Nitrophenyl-5′-TMP as a substrate; settings: read-out: TMP-pNP (IC50), 20 ng human soluble ENPP1, Tris buffer pH 9.5
human soluble ENPP1 [2] = molecular target: T1, human soluble ENPP1; experiment: ENPP1 activity assay using p-Nitrophenyl-5′-AMP as a substrate; assay type: biochemical; settings: read-out: AMP-pNP (IC50), 35 ng human soluble ENPP1, Tris buffer pH 9.5
Pharmacokinetics in mice = settings: male CD-1 mice; 1 mg/kg, iv
Description: A dosing solution of test sample was prepared at 1.0 mg/mL in 5% DMSO/40% PEG400/55% water and administered to male CD-1 mice (4-6 weeks old, 20-30 grams, 3 animals each group) via intravenous (IV) bolus at 1 mg/kg and by oral gavage (PO) at 5 mg/kg. Blood samples (˜0.03 mL each time point) were collected via the jugular vein into tubes containing sodium heparin as the anticoagulant at 0.033, 0.083, 0.25, 0.5, 1, 2, 4, 8 and 24 hours post dose for IV administration and 0.083, 0.25, 0.5, 1, 2, 4, 8 and 24 hours post dose for PO administration. The blood samples were then centrifuged for 5 minutes in a centrifuge refrigerated at 4° C. The resultant plasma samples were analyzed using LC/MS/MS to determine concentrations of test sample. Non-compartmental model with WinNonlin (Phoenix™, version 8.0) software was used to calculate pharmacokinetic (PK) parameters.

SMILES	IC50 (ENPP-1, MDA-MB-231 cells) [nM]	inhibition (ENPP-1, MDA-MB-231 cells) [%]	IC50 (human soluble ENPP1 [1]) [nM]	IC50 (human soluble ENPP1 [2]) [nM]	AUC (Pharmacokinetics in mice) [ng·h/mL]	Cl (Pharmacokinetics in mice) [mL/min/kg]	T1/2 (Pharmacokinetics in mice) [h]	Vdss (Pharmacokinetics in mice) [L/kg]
COc1ccc2c(c1)nnc1cnn(Cc3ccc(S(N)(=O)=O)c(F)c3)c12	2000	70	2.9	8.2	–	–	–	–
COc1ccc2c(c1)nnc1[nH]c(=O)n(Cc3ccc(S(N)(=O)=O)cc3)c12	1800	59	1.1	2.4	429	39	1.2	1.6
COc1ccc2c(n1)nc(C)c1nc(C)n(Cc3ccc(P(=O)(O)O)cn3)c12	480	80	–	–	–	–	–	–
